From patent publication US9932354B2, “Imidazo-oxadiazole and imidazo-thiadiazole derivatives” (Ares Trading S.A., priority 2012, dated 2018)

Tested on: Amyloid-β peptide release (AβTotal), HEK cells overexpressing APP (HEK-APP)
Assay: Amyloid-β peptide release (AβTotal) assay, AlphaLISA on supernatant of HEK-APP cells
Type: cell-based
Conditions: ratio Abtot vs Ab42, HEK-APP cells, 24 h
Method: Amyloid-β Peptide Release (Aβ42 & AβTotal) Assay to Determine IC50 Values.
Compounds are dissolved in and diluted in 100% DMSO and incubated with HEK-APP cells for 24 h at 37° C. in 5% CO2. The supernatant from HEK-APP cells are mixed with antibodies: for Aβ42 detection: AlphaLISA Amyloid-β 1-42 Kit (Perkin Elmer AL203L) Anti-Amyloid β1-42-specific antibody acceptor beads, biotinylated anti-Amyloid-“β1-42” antibody and streptavidin (SA) donor beads diluted in AlphaLISA buffer (to the instructions of the supplier). For Aβ total detection: Custom Anti-Amyloid-βtotal acceptor beads (6E10 acceptor beads), biotinylated anti-Amyloid “β1-42” antibody (Perkin Elmer AL203L) and streptavidin (SA) donor beads diluted in AlphaLISA buffer (to the instructions of the supplier). After addition of supernatant to the antibody mix, the assay is incubated for 4.5 h. Amyloid-β peptide release (Aβ42 & AβTotal) is measured with a Pherastar FS (BMG) multimode reader using the alphascreen module.

For `Cc1ncc2sc(C(=O)N3CCCC3c3ccc(Cl)cc3)nn12` (stereo not shown) [Example 118, [2-(4-Chloro-phenyl)-pyrrolidin-1-yl]-(5-methyl-imidazo[5,1-b][1,3,4]thiadiazol-2-yl)-methanone], the Abtot/Ab42 selectivity ranges was “d (d: 10 fold > selectivity)”.
